This note sets out measurements from ChEMBL document CHEMBL1124682, “Quaternary salts of 2-[(hydroxyimino)methyl]imidazole. 3. Synthesis and evaluation of (alkenyloxy)-, (alkynyloxy)-, and (aralkyloxy)methyl quaternarized 2-[(hydroxyimino)methyl]-1-alkylimidazolium halides as reactivators and therapy for soman intoxication” (1989).

Amino acid sequences for entries named in this document (tags omitted). A change or cut given only in a name is not applied to a line headed by its entry.
UniProt P22303: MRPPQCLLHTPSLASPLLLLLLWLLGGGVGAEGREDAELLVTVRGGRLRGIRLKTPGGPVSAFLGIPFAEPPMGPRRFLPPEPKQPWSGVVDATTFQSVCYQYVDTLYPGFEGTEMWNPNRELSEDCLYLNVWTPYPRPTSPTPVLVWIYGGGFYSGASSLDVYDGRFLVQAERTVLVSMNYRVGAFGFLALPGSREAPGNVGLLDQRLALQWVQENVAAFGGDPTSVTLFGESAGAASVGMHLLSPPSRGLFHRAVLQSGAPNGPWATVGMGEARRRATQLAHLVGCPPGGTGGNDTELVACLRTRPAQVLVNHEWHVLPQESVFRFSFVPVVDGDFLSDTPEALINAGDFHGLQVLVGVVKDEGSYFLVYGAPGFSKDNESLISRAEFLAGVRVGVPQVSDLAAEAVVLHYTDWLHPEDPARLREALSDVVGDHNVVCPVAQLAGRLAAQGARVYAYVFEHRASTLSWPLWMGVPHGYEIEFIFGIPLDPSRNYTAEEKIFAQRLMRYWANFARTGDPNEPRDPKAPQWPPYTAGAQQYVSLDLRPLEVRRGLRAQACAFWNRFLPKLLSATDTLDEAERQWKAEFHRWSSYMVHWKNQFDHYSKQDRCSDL

For assay [1], the target named is Acetylcholinesterase (Homo sapiens) (UniProt P22303). Put plainly: Bimolecular rate constant for reactivation of AchE in human erythrocytes.
Assay [2] shares this target. Put plainly: Kinetic constant for the transformation of the [inhibited enzyme/oximate] complex to active enzyme in human erythrocytes.
The target is the same in assay [3]. Put plainly: Kinetic constant for formation of the inhibited enzyme/oximate complex in human erythrocytes.
Assay [4] shares this target. Put plainly: Effective rate constant for reactivation of AchE in human erythrocytes.
For assay [5] the target is unchanged. Put plainly: Kinetic constant for effect on transformation of the [inhibited enzyme/oximate] complex to active enzyme in human.
For assay [6] the target is unchanged. Put plainly: Bimolecular rate constant for reactivation of acetylcholinesterase in human.
Assay [7] shares this target. Put plainly: Effective rate constant for reactivation of Acetylcholinesterase in human.
The target is the same in assay [8]. Put plainly: Effective rate constant for reactivation of AchE in human.
For assay [9] the target is unchanged. Put plainly: Kinetic constant for formation of the inhibited enzyme/oximate complex in human.
Assay [10] has the same target. Put plainly: Effective rate constant for reactivation of acetylcholinesterase in human.

The structures appear in SMILES notation.

The molecule `CC#CC(C)(C)OC[n+]1ccn(C)c1/C=N/O` came in with a kOX in [1] of 3.03 M⁻¹ s⁻¹. The molecule further registered a kr in assay [2] of 4620 min⁻¹. The same molecule returned a Kr in assay [3] of 254000 M. The same molecule yielded a kHOX in assay [4] of 0.85 M⁻¹ s⁻¹.
The corresponding values for `C#CCC(CCC)OC[n+]1ccn(C)c1/C=N/O` (configuration not stated) are 6.52 M⁻¹ s⁻¹, 1420 min⁻¹, 36000 M and 1.85 M⁻¹ s⁻¹.
As to `C#CCCCC[n+]1ccccc1/C=N/O`, in [5], the kr turned out to be 11700 min⁻¹. In assay [6], this molecule returned a kOX of 16.3 M⁻¹ s⁻¹. In assay [7], this molecule returned a kHOX of 4.65 M⁻¹ s⁻¹. Also, in assay [3], the Kr came to 119000 M.
Consider `C#CCCOC[n+]1ccn(C)c1C`, for which, in assay [1], the kOX was determined as 0 M⁻¹ s⁻¹. The same molecule showed a kr in assay [2] of 0 min⁻¹. Also, in [3], the Kr was determined as 0 M. In addition, the kHOX in [4] came out at 0 M⁻¹ s⁻¹.
`C#CC1(OC[n+]2ccn(C)c2/C=N/O)CCCC1` showed a kOX in assay [1] of 20.3 M⁻¹ s⁻¹. Also, the kr in [2] was 11100 min⁻¹. Further, the Kr in assay [3] worked out at 91000 M. Besides, the kHOX in [4] is 5.78 M⁻¹ s⁻¹.
Consider `C#CCCCC[n+]1cn(C)c(/C=N/O)n1`, for which the kr in assay [5] was determined as 7300 min⁻¹. In assay [6], this molecule showed a kOX of 3.3 M⁻¹ s⁻¹. This molecule showed a kHOX in assay [7] of 0.933 M⁻¹ s⁻¹. The same molecule yielded a Kr in assay [3] of 369000 M.
`C#CC(CC)OC[n+]1ccn(C)c1/C=N/O` (configuration not stated): in assay [1], the kOX came to 8.2 M⁻¹ s⁻¹. The molecule further had a kr in [2] of 19900 min⁻¹. The same molecule returned a Kr in [3] of 404000 M. For the same molecule, the kHOX in [4] was 2.33 M⁻¹ s⁻¹.
Taken in the same sequence, the figures for `C#CCCCOC[n+]1ccn(C)c1/C=N/O` were 12.6 M⁻¹ s⁻¹, 5060 min⁻¹, 67000 M and 3.57 M⁻¹ s⁻¹.
Taken in the same sequence, the figures for `CC#CCCOC[n+]1ccn(C)c1/C=N/O` were 5.62 M⁻¹ s⁻¹, 4420 min⁻¹, 131000 M and 1.48 M⁻¹ s⁻¹.
Taken in the same sequence, the figures for `C#CCCCC[n+]1ccn(COC)c1/C=N/O` were 7.3 M⁻¹ s⁻¹, 13500 min⁻¹, 309000 M and 2.08 M⁻¹ s⁻¹.
Turning to `C#CCCCC[n+]1ccn(C(C)(C)C)c1/C=N/O`, the kOX in assay [1] came to 5.38 M⁻¹ s⁻¹. In assay [2], this molecule showed a kr of 6110 min⁻¹. Further, in assay [8], the kHOX was 1.53 M⁻¹ s⁻¹. For the same molecule, the Kr in assay [3] amounted to 189000 M.
In the case of `C#CCCCC[n+]1ccn(C)c1/C=N/O`, the kr in [5] is 13800 min⁻¹. In [6], this molecule had a kOX of 22.4 M⁻¹ s⁻¹. In addition, in [9], the Kr is 102000 M. In addition, the kHOX in assay [10] is 6.4 M⁻¹ s⁻¹.
Molecule `C#CC(C)(C)OC[n+]1ccn(C)c1/C=N/O` yielded a kOX in [1] of 6.92 M⁻¹ s⁻¹. In [2], this molecule returned a kr of 13000 min⁻¹. Besides, in assay [3], the Kr came to 312000 M. The kHOX in assay [4] came out at 1.97 M⁻¹ s⁻¹.
Taken in the same sequence, the figures for `C#CCCOC[n+]1ccn(C)c1/C=N/O` were 7.22 M⁻¹ s⁻¹, 3450 min⁻¹, 82000 M and 2.08 M⁻¹ s⁻¹.
In [1], `C#CCOC[n+]1ccn(C)c1/C=N/O` yielded a kOX of 7.13 M⁻¹ s⁻¹. The molecule also returned a kr in assay [2] of 20300 min⁻¹. In [3], this molecule came in with a Kr of 474000 M. The molecule further came in with a kHOX in [4] of 2.03 M⁻¹ s⁻¹.
Taken in the same sequence, the figures for `C#CCC(C)OC[n+]1ccn(C)c1/C=N/O` (configuration not stated) were 9.72 M⁻¹ s⁻¹, 4890 min⁻¹, 84000 M and 2.77 M⁻¹ s⁻¹.
`C#CC1CCCCC1OC[n+]1ccn(C)c1/C=N/O` (configuration not stated): in [1], the kOX was 14.2 M⁻¹ s⁻¹. In assay [2], this molecule registered a kr of 7390 min⁻¹. The same molecule yielded a Kr in assay [3] of 86000 M. This molecule also had a kHOX in assay [4] of 4.05 M⁻¹ s⁻¹.
As to `C#CCCOC[n+]1ccn(C(C)(C)C)c1/C=N/O`, the kOX in [1] amounted to 2.22 M⁻¹ s⁻¹. In addition, in [2], the kr was determined as 29000 min⁻¹. The molecule further had a kHOX in assay [8] of 0.633 M⁻¹ s⁻¹. Further, the Kr in assay [3] came out at 2.17e+06 M.
With `C[n+]1ccccc1C=NO`, the kHOX in assay [4] came to 8.03 M⁻¹ s⁻¹.
Turning to `C#CC(C)OC[n+]1ccn(C)c1/C=N/O` (configuration not stated), in assay [1], the kOX worked out at 10.3 M⁻¹ s⁻¹. This molecule showed a kr in assay [2] of 9960 min⁻¹. This molecule also gave a Kr in [3] of 161000 M. The kHOX in assay [4] was 2.93 M⁻¹ s⁻¹.
In [5], `C#CCCOC[n+]1ccc(/C=N/O)cc1` returned a kr of 77700 min⁻¹. In [6], this molecule returned a kOX of 25.8 M⁻¹ s⁻¹. In [7], this molecule registered a kHOX of 7.33 M⁻¹ s⁻¹. This molecule also displayed a Kr in [3] of 503000 M.
In assay [1], `C#CC(C)C(C)OC[n+]1ccn(C)c1/C=N/O` (configuration not stated) gave a kOX of 8.52 M⁻¹ s⁻¹. The molecule also returned a kr in assay [2] of 2250 min⁻¹. This molecule also had a Kr in [3] of 44000 M. Also, the kHOX in assay [4] was 2.42 M⁻¹ s⁻¹.
As for `C#CCCCC[n+]1ccc(/C=N/O)cc1`, the kr in [5] came out at 29000 min⁻¹. Besides, the kOX in assay [6] came out at 29.7 M⁻¹ s⁻¹. For the same molecule, in assay [7], the kHOX was 8.45 M⁻¹ s⁻¹. Besides, the Kr in [3] turned out to be 163000 M.
In assay [1], `C#CC(CCC)OC[n+]1ccn(C)c1/C=N/O` (configuration not stated) registered a kOX of 13.6 M⁻¹ s⁻¹. The molecule also yielded a kr in [2] of 6600 min⁻¹. In [3], this molecule gave a Kr of 81000 M. The molecule further returned a kHOX in assay [4] of 3.88 M⁻¹ s⁻¹.
In the case of `CC#CC(C)OC[n+]1ccn(C)c1/C=N/O` (configuration not stated), in assay [1], the kOX was 5.88 M⁻¹ s⁻¹. The kr in assay [2] was found to be 14300 min⁻¹. The Kr in assay [3] worked out at 405000 M. In assay [4], this molecule gave a kHOX of 1.68 M⁻¹ s⁻¹.
